From patent publication US11541029B2, “High penetration compositions and their applications” (Techfields Pharma Co., Ltd., priority 2008, dated 2023)

Conditions: rat, in vivo

## CC(C)Cc1ccc(C(C)C(=O)O)cc1 (stereo not shown) [ibuprofen, 2-(ρ-isobutylphenyl)propionic acid, reference compound]
  ibuprofen in Brain (1 hr): Not
